Source: article PMC10602570, “A Bioresponsive Genetically Encoded Antimicrobial Crystal for the Oral Treatment of Helicobacter Pylori Infection” (2023)

Molecular target: Cry3Aa‐MIIA(D45E) N‐terminal fragment crystals (Cry3Aa‐MIIANt*) (Bacillus thuringiensis | Vibrio coralliilyticus (printed: Vibrio coralliilyticu))
Assay: co-sedimentation

cleaved MIIA(D45E) C‐terminal‐GFP fragment (MIIACt‐GFP) (domain or fragment)
percent released after 48 h: 20%
